From patent publication US20250011330A1, “Imidazo[1,2- a]pyrazine and Imidazo[1,2- a]pyridine Based Tyrosyl-DNA Phosphodiesterase I (TDP1) Inhibitors” (The USA, As Represented by the Secretary, Department of …, priority 2021, published 2025) come the findings set out here.

Sequences of proteins named here, by UniProt entry; tags and fusion partners are left off.
UniProt Q9NUW8, whole entry: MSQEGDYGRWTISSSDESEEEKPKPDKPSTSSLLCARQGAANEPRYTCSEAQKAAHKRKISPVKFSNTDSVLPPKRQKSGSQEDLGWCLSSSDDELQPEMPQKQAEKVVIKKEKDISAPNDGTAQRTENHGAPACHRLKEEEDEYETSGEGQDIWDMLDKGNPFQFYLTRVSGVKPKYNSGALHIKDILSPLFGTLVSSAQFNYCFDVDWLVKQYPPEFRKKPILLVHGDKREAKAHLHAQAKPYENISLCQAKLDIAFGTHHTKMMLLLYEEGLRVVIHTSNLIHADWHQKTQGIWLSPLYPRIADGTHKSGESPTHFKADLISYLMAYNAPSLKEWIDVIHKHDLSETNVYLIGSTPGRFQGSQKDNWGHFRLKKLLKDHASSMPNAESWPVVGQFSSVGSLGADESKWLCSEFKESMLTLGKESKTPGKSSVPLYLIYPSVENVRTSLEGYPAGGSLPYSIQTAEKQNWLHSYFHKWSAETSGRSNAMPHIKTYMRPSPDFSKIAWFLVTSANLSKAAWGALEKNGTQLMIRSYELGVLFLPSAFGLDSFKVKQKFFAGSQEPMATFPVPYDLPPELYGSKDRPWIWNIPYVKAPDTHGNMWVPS

The target in assay [1] is T1, TDP1 (Homo sapiens (Human), UniProt Q9NUW8). Briefly: Degradation assay (western blotting) of TDP1 in HCT116 and HEK293 cells. In kind it is cell-based. The note with it: list in description. As for the experimental part: The degradation effect of the TDP1 inhibitors on TDP1 in human colon cancer cell line HCT116 and embryonic kidney cell line HEK293 were studied. Cells were first seeded in a 6-well plate until 60-80% confluency and then incubated with a serial dilution of TDP1 inhibitors at the range of 25-200 μM for 24-72 h at 37° C. Drug treated cells were collected and washed twice by DPBS followed by lysing in 1×RIPA buffer (50 mM Tris HCl, pH 7.4, 150 mM NaCl, 1 mM EDTA, 1 mM DTT, 0.1% sodium deoxycholate, 0.1% SDS, and 1% TritonX-100) supplemented with 1× protease inhibitor cocktail (Thermo). Samples were then sonicated at 30% for 10 s and centrifuged for 15 min at 15000 rpm at 4 Celsius. Supernatant were collected and the concentration of total protein were measured by BCA Protein Assay Kit according to its protocols. Four micrograms of total protein for each sample were loaded and TDP1 level were conducted by western blotting.

In assay [2] the target is T1, TDP1. Briefly: TDP1 gel-based in vitro fluorescence assay. The class given is biochemical. To be noted: for IC50: Table 8, lead compounds with different linkers; for FC (fold change): Table 8, ratio of IC50 TDP2 to TDP1. The procedure: (TDP assay buffer: 50 mM Tris HCl, pH 7.5, 80 mM KCl, 2 mM EDTA, 1 mM DTT, 40 μg/ml BSA and 0.01% Tween-20. TDP1 (20 mg/mL in 25 mM Tris-HCl pH 7.2, 150 mM NaCl, 2 mM tris(2-carboxyethyl)phosphine) with 2 mL of well solution composed of 0.1 M MOPS/HEPES pH 7.5, 10% (w/v) PEG 8000, 20% (v/v) ethylene glycol, 0.03 M sodium fluoride, 0.03 M sodium bromide, 0.03 M sodium iodide, 0.03 M sodium bromide and sealed over […] well solution. AF647 labelling buffer: Tris-HCl (pH 7.2, 25 mM), NaCl (150 mM), and tris(2-carboxyethyl)phosphine hydrochloride (TCEP, 2 mM).)
(DNA only: Buffer+DMSO. DMSO only: Enzyme+DMSO. Drug: Enzyme+Drug, 25° C., 10 min+DNA, reaction at 25° C., 15 min.)
Gel images were scanned using a Typhoon FLA 9500 scanner (GE Healthcare) and densitometric analyses were performed using the ImageQuant software (GE Healthcare). The IC50 of TDP1 inhibitors was calculated by comparing the percentage of cleavage product (5′Cy5-[…]-p-3′) to DMSO control.

With “4-((2-(4-(2-((4-(5-((λ^2-Azaneylidene)-λ^3-methyl)pyridin-2-yl)phenyl)methoxy)ethyl)phenyl)-7-phenylimidazo[1,2-a]pyridin-3-yl)amino)benzoic acid [XZ726]”, the TDP1 degrading activity entry in assay [1] is recorded as “exhibit TDP1 degrading activity”. Also, in assay [2], the IC50 was determined as 2.75 ± 0.25 µM and the “FC (fold change)” value is greater than 36.

For “4-((2-(4-(2-((4-(5-((λ^2-Azaneylidene)-λ^3-methyl)pyridin-2-yl)phenyl)methoxy)ethyl)phenyl)imidazo[1,2-a]pyridin-3-yl)amino)benzoic acid [XZ727]”, in assay [2], the IC50 was determined as 25.1 ± 1.25 µM and the “FC (fold change)” value came out at 3.
